{"source": "patent US20230337678A1", "about": "“NITRIC OXIDE-RELEASING ANTIBACTERIAL COMPOUNDS, FORMULATIONS, AND METHODS PERTAINING THERETO” (KNOW BIO, LLC, priority 2020, published 2023)", "conditions": "2 moles of NO per mole, single diazeniumdiolate group", "data": [{"smiles": "[O-]/[N+](=N\\O)C(/[N+]([O-])=N/O)/[N+]([O-])=N/O", "values": [{"measurement": "theoretical NO load / yield", "value": 7.6, "unit": "μmol NO/mg"}]}]}
